Values joined by “and” are separate entries in the source; they are usually repeats but may differ in a detail not shown here. Equal values may be shown once. The entries are a selection whose mix differs from that of the whole data set.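 Compound tested at a single concentration for 48 hours in 96-well plates; a percent growth value below 10 was scored as active.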 Active and inactive are the calls of the source.
Each molecule was assayed on SK-OV-3 ovarian (assay: NCI-60 one-dose screen, 48 h (100 = growth as untreated, 0 = no growth, -100 = all killed)). Details: 10 µM unless noted.

Q: Which growth does the source give for `COc1cc([N+](=O)[O-])c([N+](=O)[O-])cc1N` here?
A: inactive: 100%

Q: With `Cc1ccc(Sc2ccc([N+](=O)[O-])cc2[N+](=O)[O-])c([N+](=O)[O-])c1` as the molecule, how does the growth read?
A: active: 8.15%

Q: With `CC(=O)Nc1ccc([As](=O)(O)O)cc1` as the molecule, how does the growth read?
A: inactive: 117%

Q: With `ClCCN1CCc2ccccc2C1` as the molecule, how does the growth read?
A: inactive: 108%

Q: With `CCOC(=O)NC(C)(CCC(C)(NC(=O)OCC)P(=O)(O)Nc1ncccn1)P(=O)(O)Nc1ncccn1` (stereo unspecified) as the molecule, how does the growth read?
A: inactive: 107% [100 µM]

Q: Which growth does the source give for `CCSC(O)C(Cl)(Cl)Cl` (stereo unspecified) here?
A: inactive: 109%

Q: Which growth does the source give for `COP(=O)(OC)N1CC1c1ccccc1` (stereo unspecified) here?
A: inactive: 114%

Q: Which growth does the source give for `O=P1(N(CCCl)CCCl)OCCCS1` (stereo unspecified) here?
A: inactive: 110%

Q: For `CC[C@H](C)[C@@H]1NC(=O)/C(=C(\C)O)C1=O`, which growth is on record?
A: inactive: 98.1%

Q: How did the growth turn out when `CCN(CCCl)C(Cc1ccccc1)c1ccccc1` (stereo unspecified) was run?
A: inactive: 97.2%

Q: `[N-]=[N+]=NS(=O)(=O)c1ccc([N+](=O)[O-])cc1` was tested. Which growth did it give?
A: inactive: 126%

Q: With `O=P1(N(CCCl)CCCl)OCCCN1CCCl` (stereo unspecified) as the molecule, how does the growth read?
A: inactive: 106%

Q: `O=C1CSC(C(Cl)(Cl)Cl)N1c1ccc(Cl)cc1` (stereo unspecified) was tested. Which growth did it give?
A: inactive: 106%

Q: With `ClC1(Cl)SC(Cl)(Cl)C(Cl)(Cl)C1(Cl)Cl` as the molecule, how does the growth read?
A: inactive: 101%

Q: Which growth does the source give for `Nc1ccc(CCCCOc2ccccc2)cc1` here?
A: inactive: 106%

Q: For `CCN(CCCl)c1ccc(CCC(=O)O)cc1`, which growth is on record?
A: inactive: 95.5%

Q: `O=C(OC1CN2CCC1CC2)c1ccccc1` (stereo unspecified) was tested. Which growth did it give?
A: inactive: 115%

Q: Which growth does the source give for `Nc1nnc(N)nn1` here?
A: inactive: 106%

Q: With `COP(OC)c1ccc(C)cc1` as the molecule, how does the growth read?
A: inactive: 115%

Q: Which growth does the source give for `CCOP(=O)(NC1CCCCC1)OCC` here?
A: inactive: 96.4%

Q: With `CC(Cl)CN(CC(C)Cl)C(=O)OCC(N)C(=O)O` (stereo unspecified) as the molecule, how does the growth read?
A: inactive: 94.8% and inactive: 97.2%

Q: Which growth does the source give for `O=S1(=O)CC(Sc2ccccc2)[C@@H](Cl)C1` (stereo partly specified) here?
A: inactive: 106%

Q: `O=C(CCC(=O)Oc1c(Cl)cc([N+](=O)[O-])cc1[N+](=O)[O-])Oc1c(Cl)cc([N+](=O)[O-])cc1[N+](=O)[O-]` was tested. Which growth did it give?
A: inactive: 100%

Q: How did the growth turn out when `COc1cccc([As]=O)c1` (stereo unspecified) was run?
A: active: -98%

Q: With `c1cc(-c2nn[nH]n2)ccc1-c1nn[nH]n1` as the molecule, how does the growth read?
A: inactive: 99.3%

Q: For `CCN(CCCl)Cc1ccccc1`, which growth is on record?
A: inactive: 102%

Q: `CCCCOP(=O)(OCCCC)N1CCCC1C(=O)O` (stereo unspecified) was tested. Which growth did it give?
A: inactive: 92.8%

Q: Which growth does the source give for `CCN(CCCl)C1c2ccccc2-c2ccccc21` here?
A: inactive: 98.8%

Q: `CCOP(=O)(CCBr)OCC` was tested. Which growth did it give?
A: inactive: 114% and inactive: 109%

Q: With `ClCCNCc1ccccc1` as the molecule, how does the growth read?
A: inactive: 119%

Q: With `O=[As]c1ccc(S(=O)(=O)Nc2ccccc2)cc1` (stereo unspecified) as the molecule, how does the growth read?
A: inactive: 121%

Q: Which growth does the source give for `CCc1cc(O)c([N+](=O)[O-])c(C)c1[N+](=O)[O-]` here?
A: inactive: 108%

Q: Which growth does the source give for `Clc1ccc(P(Cl)Cl)cc1` here?
A: inactive: 111%

Q: With `O=[As](O)(c1ccc(O)cc1)c1ccccc1O` as the molecule, how does the growth read?
A: inactive: 98%

Q: Which growth does the source give for `CCCCCCC(C)OP(O)OC(C)CCCCCC` (stereo unspecified) here?
A: inactive: 139%

Q: How did the growth turn out when `NC(=O)Nc1ccc([As](=O)(O)O)cc1` was run?
A: inactive: 112%

Q: How did the growth turn out when `O=[N+]([O-])c1cc(Cl)cc([N+](=O)[O-])c1O` was run?
A: inactive: 97.2%

Q: Which growth does the source give for `ClP1Nc2cncnc2N1` (stereo unspecified) here?
A: inactive: 112%

What follows are molecules tested on IGROV1 ovarian in the same assay as above. Details: 10 µM unless noted.

Q: For `COc1cc([N+](=O)[O-])c([N+](=O)[O-])cc1N`, which growth is on record?
A: inactive: 101%

Q: With `Cc1ccc(Sc2ccc([N+](=O)[O-])cc2[N+](=O)[O-])c([N+](=O)[O-])c1` as the molecule, how does the growth read?
A: inactive: 46.6%

Q: With `CC(=O)Nc1ccc([As](=O)(O)O)cc1` as the molecule, how does the growth read?
A: inactive: 92.6%

Q: How did the growth turn out when `ClCCN1CCc2ccccc2C1` was run?
A: inactive: 73.3%

Q: Which growth does the source give for `CCOC(=O)NC(C)(CCC(C)(NC(=O)OCC)P(=O)(O)Nc1ncccn1)P(=O)(O)Nc1ncccn1` (stereo unspecified) here?
A: inactive: 107% [100 µM]

Q: How did the growth turn out when `CCSC(O)C(Cl)(Cl)Cl` (stereo unspecified) was run?
A: inactive: 96.9%

Q: How did the growth turn out when `COP(=O)(OC)N1CC1c1ccccc1` (stereo unspecified) was run?
A: inactive: 120%

Q: Which growth does the source give for `O=P1(N(CCCl)CCCl)OCCCS1` (stereo unspecified) here?
A: inactive: 118%

Q: How did the growth turn out when `CC[C@H](C)[C@@H]1NC(=O)/C(=C(\C)O)C1=O` was run?
A: inactive: 121%

Q: `CCN(CCCl)C(Cc1ccccc1)c1ccccc1` (stereo unspecified) was tested. Which growth did it give?
A: inactive: 96.1%

Q: `[N-]=[N+]=NS(=O)(=O)c1ccc([N+](=O)[O-])cc1` was tested. Which growth did it give?
A: inactive: 114%

Q: For `O=P1(N(CCCl)CCCl)OCCCN1CCCl` (stereo unspecified), which growth is on record?
A: inactive: 132%

Q: How did the growth turn out when `O=C1CSC(C(Cl)(Cl)Cl)N1c1ccc(Cl)cc1` (stereo unspecified) was run?
A: inactive: 95.2%

Q: `ClC1(Cl)SC(Cl)(Cl)C(Cl)(Cl)C1(Cl)Cl` was tested. Which growth did it give?
A: inactive: 101%

Q: How did the growth turn out when `Nc1ccc(CCCCOc2ccccc2)cc1` was run?
A: inactive: 87.9%

Q: With `CCN(CCCl)c1ccc(CCC(=O)O)cc1` as the molecule, how does the growth read?
A: inactive: 94.1%

Q: Which growth does the source give for `O=C(OC1CN2CCC1CC2)c1ccccc1` (stereo unspecified) here?
A: inactive: 121%

Q: Which growth does the source give for `Nc1nnc(N)nn1` here?
A: inactive: 109%

Q: How did the growth turn out when `COP(OC)c1ccc(C)cc1` was run?
A: inactive: 110%

Q: Which growth does the source give for `CCOP(=O)(NC1CCCCC1)OCC` here?
A: inactive: 106%

Q: Which growth does the source give for `CC(Cl)CN(CC(C)Cl)C(=O)OCC(N)C(=O)O` (stereo unspecified) here?
A: inactive: 109%

Q: How did the growth turn out when `O=S1(=O)CC(Sc2ccccc2)[C@@H](Cl)C1` (stereo partly specified) was run?
A: inactive: 109%

Q: For `O=C(CCC(=O)Oc1c(Cl)cc([N+](=O)[O-])cc1[N+](=O)[O-])Oc1c(Cl)cc([N+](=O)[O-])cc1[N+](=O)[O-]`, which growth is on record?
A: inactive: 105%

Q: With `COc1cccc([As]=O)c1` (stereo unspecified) as the molecule, how does the growth read?
A: active: -52.2%

Q: How did the growth turn out when `c1cc(-c2nn[nH]n2)ccc1-c1nn[nH]n1` was run?
A: inactive: 120%

Q: For `CCN(CCCl)Cc1ccccc1`, which growth is on record?
A: inactive: 104%

Q: Which growth does the source give for `CCCCOP(=O)(OCCCC)N1CCCC1C(=O)O` (stereo unspecified) here?
A: inactive: 114%

Q: With `CCN(CCCl)C1c2ccccc2-c2ccccc21` as the molecule, how does the growth read?
A: inactive: 97.5%

Q: Which growth does the source give for `CCOP(=O)(CCBr)OCC` here?
A: inactive: 105% and inactive: 125%

Q: With `ClCCNCc1ccccc1` as the molecule, how does the growth read?
A: inactive: 107%

Q: Which growth does the source give for `O=[As]c1ccc(S(=O)(=O)Nc2ccccc2)cc1` (stereo unspecified) here?
A: inactive: 46%

Q: Which growth does the source give for `CCc1cc(O)c([N+](=O)[O-])c(C)c1[N+](=O)[O-]` here?
A: inactive: 103%

Q: With `Clc1ccc(P(Cl)Cl)cc1` as the molecule, how does the growth read?
A: inactive: 106%

Q: With `O=[As](O)(c1ccc(O)cc1)c1ccccc1O` as the molecule, how does the growth read?
A: inactive: 111%

Q: `CCCCCCC(C)OP(O)OC(C)CCCCCC` (stereo unspecified) was tested. Which growth did it give?
A: inactive: 98.7%

Q: With `NC(=O)Nc1ccc([As](=O)(O)O)cc1` as the molecule, how does the growth read?
A: inactive: 119%

Q: With `O=[N+]([O-])c1cc(Cl)cc([N+](=O)[O-])c1O` as the molecule, how does the growth read?
A: inactive: 107%

Q: Which growth does the source give for `ClP1Nc2cncnc2N1` (stereo unspecified) here?
A: inactive: 104%

Source: PubChem BioAssay (NCI)
